## Reported intrinsic clearance values for industrial, environmental and drug-like chemicals

Source: data files of OPERA 2.9 (Mansouri et al.), github.com/kmansouri/OPERA.

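These are experimental values that the OPERA curators gathered from public databases to train and test their QSAR models. One number stands for a compound and property, with no spread given. Method and conditions are not stated for these values. A value may pool stereoisomers or salt forms, and the file does not say which form was measured. Unmarked limits or estimates from the upstream databases cannot be ruled out.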

Clint is human hepatic intrinsic clearance in µL/min per million cells; 0 means that no clearance was seen.
"n/a" marks a cell with nothing listed here.

compound,name,Clint (µL/min/10^6 cells)
Cc1ccc(C(C)(C)C)c(O)c1,2-tert-butyl-5-methylphenol,36
CS(=O)(=O)OCCCCOS(C)(=O)=O,Busulphan,1.39
CCCCCCOc1ccc(O)cc1,4-(hexyloxy)phenol,83.6
CSC(=O)c1cccc2nnsc12,Acibenzolar-s-methyl,863
CCCCC(CC)COC(=O)CC(C(=O)OCC(CC)CCCC)S(=O)(=O)[O-].[Na+] (configuration not stated),Docusate sodium,49.8
Cc1c(C)c2c(c(C)c1O)CCC(C)(COc1ccc(CC3SC(=O)NC3=O)cc1)O2 (configuration not stated),Troglitazone,24.84
Cc1ccc(N=Nc2c(O)ccc3ccccc23)c(C)c1,C.i. solvent orange 7,0
Oc1ccc(Cc2ccccc2O)cc1,2-(4-hydroxybenzyl)phenol,56.8
CC(O)CN(CCN(CC(C)O)CC(C)O)CC(C)O (configuration not stated),"N,n,n',n'-tetrakis(2-hydroxypropyl)ethylenediamine",0
COc1ccc(C(=O)NCc2ccc(OCCN(C)C)cc2)cc1OC,Itopride,11
CCCCCCC(C)OC(=O)COc1nc(F)c(Cl)c(N)c1Cl (configuration not stated),Fluroxypyr-meptyl,9.92
CCCCC(CC)COC(=O)CCCCCCCC(=O)OCC(CC)CCCC (configuration not stated),Azelaic acid di(2-ethylhexyl) ester,3.152
CCNc1ccc(C(=C2C=CC(=[N+](CC)CC)C=C2)c2ccc(N(CC)CC)cc2)c2ccccc12.[Cl-],Basic blue 7,3.21
CCc1nc(N)nc(N)c1-c1ccc(Cl)cc1,Pyrimethamine,2.768
C=Cc1ccccc1,Styrene,8.516
CCCCc1ccc(N)cc1,4-butylaniline,26.4
CCc1ccc(CCOc2ccc(CC3SC(=O)NC3=O)cc2)nc1.Cl (configuration not stated),Pioglitazone hydrochloride,8.92
CN1CCN(CCCN2c3ccccc3Sc3ccc(Cl)cc32)CC1,Prochlorperazine,5.452
COc1ccc2c(c1)c(CC(=O)O)c(C)n2C(=O)c1ccc(Cl)cc1,Indomethacin,9.35
COc1cccc2c1C(=O)c1c(O)c3c(c(O)c1C2=O)C[C@@](O)(C(=O)CO)C[C@@H]3O[C@H]1C[C@H](N)[C@H](O)[C@H](C)O1.Cl,Adriamycin hydrochloride,0
COc1cc(CCC(=O)CC(=O)CCc2ccc(O)c(OC)c2)ccc1O,Tetrahydrocurcumin,173
CCCCCCCCCCCCCC[P+](CCCC)(CCCC)CCCC.[Cl-],Tributyltetradecylphosphonium chloride,16.7
CC(C)(c1ccc(O)cc1)c1ccc(O)cc1,Bisphenol-a,19.9
O=[N+]([O-])c1ccc(O)cc1,4-nitrophenol,25.95
CC(c1cc2ccccc2s1)N(O)C(N)=O (configuration not stated),Zileuton,4.222
CCCCCCCCCCCCN1CCCCCC1=O,Laurocapram,9.8
CC1=CC(=O)/C(=C(/C)[O-])C(=O)O1.[Na+],Sodium dehydroacetate,0
CC(=O)c1ccccc1,Acetophenone,0
CC(C)(C)c1ccc(O)c(C(C)(C)C)c1,"2,4-di-tert-butylphenol",2.52
Nc1ccc2c(c1)C(=O)c1ccccc1C2=O,2-aminoanthraquinone,30.8
NC(=O)NN=Cc1ccc([N+](=O)[O-])o1,Nitrofurazone,0
CCC(=C(c1ccc(O)cc1)c1ccc(OCCN(C)C)cc1)c1ccccc1,4-hydroxytamoxifen,16
Cc1ccc(O)cc1,4-methylphenol,39.66
C=C1C[C@H]2[C@@H]3C=C(C)C4=CC(=O)CC[C@]4(C)[C@H]3CC[C@]2(C)[C@@]1(OC(C)=O)C(C)=O,Melengestrol acetate,41.4
Nc1cccc2c(N)cccc12,"1,5-diaminonaphthalene",0
CCOC(=O)c1ccccc1C(=C1C=C(Br)C(=O)C(Br)=C1)c1cc(Br)c(O)c(Br)c1,Tetrabromophenolphthalein ethyl ester,0
CN1CCN(CC(=O)N2c3ccccc3C(=O)Nc3cccnc32)CC1,Pirenzepine,0
CS(O)(=O)=O.CC(C)(C)c1cc(/C=C2SC(=N)NC2=O)cc(c1O)C(C)(C)C,n/a,0
O=C(c1cc(O)c(O)c(O)c1)c1ccc(O)c(O)c1O,Exifone,28.1
Nc1nc(N)c2nc(CNc3ccc(C(=O)N[C@@H](CCC(=O)O)C(=O)O)cc3)cnc2n1,Aminopterin,0

A selection of 3 entries from above:

compound,name,Clint (µL/min/10^6 cells)
Cc1ccc(C(C)(C)C)c(O)c1,2-tert-butyl-5-methylphenol,36
Cc1ccc(N=Nc2c(O)ccc3ccccc23)c(C)c1,C.i. solvent orange 7,0
CCNc1ccc(C(=C2C=CC(=[N+](CC)CC)C=C2)c2ccc(N(CC)CC)cc2)c2ccccc12.[Cl-],Basic blue 7,3.21